Data: patent US20030171306A1, “Cancer treatment method” (priority 2002, published 2003)

Test system: multiple stage neutrophil progenitors
Assay: CD15 neutrophil antigen cell-based ELISA (CELISA)
Conditions: PDE4 inhibitor 1 μM in combination with forskolin

SMILES | protection of neutrophil progenitors from the cytotoxic effects of paclitaxel
O=c1c2cccnc2n(-c2cccc([N+](=O)[O-])c2)c(=O)n1Cc1ccncc1 [RS-25344] | protected
COC(=O)c1cccc(-n2c(=O)n(Cc3ccccc3)c(=O)c3cccnc32)c1 [CP-77059] | protected
COc1ccc([C@]2(C#N)CC[C@@H](C(=O)O)CC2)cc1OC1CCCC1 [Ariflo, cis-4-cyano-4-[3-(cyclopentyloxy)-4-methoxyphenyl]cyclohexane-1-carboxylic acid] | protected
CCn1c(=O)c2ccccc2n(-c2cccc([N+](=O)[O-])c2)c1=O [Nitraquazone] | protected
COC(=O)N1C[C@@H](c2ccc(OC)c(OC3CCCC3)c2)[C@](C)(C(C)=O)C1 [GI193600X] | protected
CCCCn1c(=O)c2c(ncn2CC(C)=O)n(CCCC)c1=O [Denbufylline, 7-acetonyl,1,3dibutylxanthine] | protected
COc1ccc(C(=O)Nc2c(Cl)cncc2Cl)cc1OC1CCCC1 [Piclamilast, N-(3,5-dichloropyrid-4-yl)-3-cyclopentyloxy-4-methoxybenzamide] | protected

Same assay, conditions: ariflo 1 μM plus forskolin

SMILES | protection of neutrophil progenitors from the cytotoxic effects of topotecan
COc1ccc([C@]2(C#N)CC[C@@H](C(=O)O)CC2)cc1OC1CCCC1 [Ariflo, cis-4-cyano-4-[3-(cyclopentyloxy)-4-methoxyphenyl]cyclohexane-1-carboxylic acid] | protected
